In patent US10563243B2, “Bioavailability of metal ions” (priority 2014, dated 2020):

Tested on: mixture of Actinomyces viscosus, Lactobacillus casei, Streptococcus oralis, Fusobacterium nucleatum, and Veillnoella parvula
Assay: Zinc/copper bioavailability assay: bacterial viability by resazurin fluorescence, oral bacterial mixture

## Cu2O
Table 6, 0.5% elemental copper in deionized water
  % viable: 12.08%
Table 7, 0.05% elemental copper in deionized water
  % viable: 19.70%
